Among the data in PubChem BioAssay AID1415 (NMMLSC, 2008) are binding response (% of control) values, retold here.

Chains of the proteins cited; added tags and fusions are not shown.
UniProt P09471, whole entry: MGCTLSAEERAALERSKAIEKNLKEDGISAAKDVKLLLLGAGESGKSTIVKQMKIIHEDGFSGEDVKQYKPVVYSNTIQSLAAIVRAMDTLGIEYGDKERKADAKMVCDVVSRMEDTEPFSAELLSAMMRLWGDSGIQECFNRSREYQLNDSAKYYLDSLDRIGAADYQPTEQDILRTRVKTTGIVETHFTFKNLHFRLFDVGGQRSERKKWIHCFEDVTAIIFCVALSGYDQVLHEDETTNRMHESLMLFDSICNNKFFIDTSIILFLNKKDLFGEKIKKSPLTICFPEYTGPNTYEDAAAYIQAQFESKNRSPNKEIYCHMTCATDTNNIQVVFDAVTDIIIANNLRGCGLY

The list shows a part of the results, in another mix than the full data. Some salts or complexes appear as unconnected parts, following the source record. Activity calls are given as the source filed them. Cut-off read from the data, not from the text of the source: active = binding response below about 49% or above about 150%; inactive = in between.

This assay has as its target Guanine nucleotide-binding protein G(o) subunit alpha (Homo sapiens) (UniProt P09471). As to the kind of experiment: RGS4-Galphao interaction inhibitors and enhancers – biochemical, multiplexed bead flow cytometry, primary screen (AID 1415).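 Note: fluorescent Galphao activated with aluminum fluoride binding bead-coupled RGS4.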 The note with it: at 10 µM, actives lie on both sides.
For `COc1ccccc1OP(C)(=O)Nc1ccccc1` (configuration not stated), the binding response (% of control) is inactive: 106%.

Turning to `CP(=O)(Nc1ccccc1Br)Oc1ccccc1` (configuration not stated), the binding response (% of control) was inactive: 104%.

For `CP(=S)(Nn1cnnc1)Oc1ccccc1` (configuration not stated), the binding response (% of control) is inactive: 117%.

Take `CP(=O)(Nc1ccccn1)Oc1ccc(Cl)cc1` (configuration not stated): the binding response (% of control) is inactive: 102%.

As to `CCOP(C)(=S)SCC(=O)NC(C)C(=O)O` (configuration not stated), the binding response (% of control) is inactive: 92.2%.

On to `CCOC(=O)c1ccc(NP(C)(=O)Oc2ccc(OC)cc2)cc1` (configuration not stated), for which the binding response (% of control) was inactive: 105%.

With `CCc1ccc(OP(C)(=O)N2CCN(c3ccc([N+](=O)[O-])cc3)CC2)cc1` (configuration not stated), the binding response (% of control) was inactive: 104%.

Turning to `CP(=O)(NC(=O)Nc1ccccc1)Oc1ccccc1` (configuration not stated), the binding response (% of control) was inactive: 98.5%.

`Cc1cc(C)cc(OP(C)(=O)Nc2ccc(SC(F)(F)F)cc2)c1` (configuration not stated): the binding response (% of control) was inactive: 102%.

In the case of `CP(=O)(Nc1ccc(SC(F)(F)F)cc1)Oc1ccc(Cl)cc1` (configuration not stated), the binding response (% of control) was inactive: 106%.

Take `Cc1cccc(C)c1OP(C)(=O)Nc1ccc(SC(F)(F)F)cc1` (configuration not stated): the binding response (% of control) is inactive: 95.7%.

For `CP(=O)(Oc1ccccc1)OC(c1ccccc1)C(F)(F)F` (configuration not stated), the binding response (% of control) is inactive: 101%.

In the case of `CCN(CC)CCCOC(=O)C(O)(c1ccccc1)c1ccccc1`, the binding response (% of control) was inactive: 102%.

`COc1ccccc1OP(C)(=O)Nc1cc(Cl)ccc1C` (configuration not stated): the binding response (% of control) is inactive: 102%.

On to `COc1ccc(OP(C)(=O)Nc2cccc(F)c2)cc1` (configuration not stated), for which the binding response (% of control) was inactive: 94.2%.

On to `Cc1cc(C)cc(OP(C)(N)=O)c1` (configuration not stated), for which the binding response (% of control) was inactive: 101%.

With `CCOC(=O)c1ccc(NP(C)(=O)Oc2ccccc2)cc1` (configuration not stated), the binding response (% of control) was inactive: 103%.

For the molecule `COc1ccccc1OP(C)(=O)Nc1ccc(C)cc1` (configuration not stated), the binding response (% of control) is inactive: 94.9%.

Regarding `Cc1ccc(NP(C)(=O)Oc2ccccc2)c(C)c1` (configuration not stated), the binding response (% of control) was inactive: 103%.

For `CC(C)(C)c1ccc(OP(C)(=O)Nc2ccc(SC(F)(F)F)cc2)cc1` (configuration not stated), the binding response (% of control) is inactive: 104%.

`Cc1cccc(C)c1OP(C)(N)=O` (configuration not stated): the binding response (% of control) was inactive: 102%.

As to `O=[N+]([O-])c1ccc2c(c1)C=Nc1ccccc1O2`, the binding response (% of control) was inactive: 112%.

Turning to `CC1=NCCc2c1[nH]c1ccccc21.O=[N+]([O-])c1cc([N+](=O)[O-])c(O)c([N+](=O)[O-])c1`, the binding response (% of control) is inactive: 112%.

As for `O=C(O)c1cccc(Nc2c([N+](=O)[O-])cc([N+](=O)[O-])cc2[N+](=O)[O-])c1`, the binding response (% of control) is inactive: 102%.

For the molecule `CP(=O)(Nc1cccc(Br)c1)Oc1ccccc1` (configuration not stated), the binding response (% of control) is inactive: 100%.

Consider `Cc1cc(C)cc(OP(C)(=O)Nc2ccccn2)c1` (configuration not stated), for which the binding response (% of control) was inactive: 104%.

As for `Cc1ccc(C)c(NP(C)(=O)Oc2ccccc2)c1` (configuration not stated), the binding response (% of control) is inactive: 83.4%.

For `Cc1cc(C)cc(OP(C)(=O)Nc2ccc(C)cc2C)c1` (configuration not stated), the binding response (% of control) is inactive: 98.3%.

For `CCOC(=O)c1ccc(NP(C)(=O)Oc2cc(C)cc(C)c2)cc1` (configuration not stated), the binding response (% of control) was inactive: 105%.

For the molecule `COc1ccccc1OP(C)(=O)Nc1cccc(Br)c1` (configuration not stated), the binding response (% of control) is inactive: 99.7%.

On to `Cc1nc2ccc3ccccc3c2s1.O=[N+]([O-])c1cc([N+](=O)[O-])c(O)c([N+](=O)[O-])c1`, for which the binding response (% of control) was inactive: 99.2%.

On to `O=[N+]([O-])c1cc([N+](=O)[O-])c(-n2nnc3ccccc32)c([N+](=O)[O-])c1`, for which the binding response (% of control) was inactive: 94.4%.

As to `CP(=O)(Nc1ccc(SC(F)(F)F)cc1)Oc1ccccc1` (configuration not stated), the binding response (% of control) was inactive: 98.1%.

Turning to `CCCOc1ccc(NP(C)(=O)Oc2ccc(Cl)cc2)cc1` (configuration not stated), the binding response (% of control) was inactive: 101%.

Regarding `CN1CCCCC1COC(=O)C1(O)c2ccccc2CCc2ccccc21` (configuration not stated), the binding response (% of control) was inactive: 104%.

In the case of `COc1ccccc1OP(C)(=O)Nc1c(C)cccc1C` (configuration not stated), the binding response (% of control) is inactive: 98.5%.

For `O=[N+]([O-])c1cc([N+](=O)[O-])c(Nc2nnnn2CCO)c([N+](=O)[O-])c1`, the binding response (% of control) was inactive: 98.6%.

As to `CCOC(=O)C(CC)C1=NC(C)(C)Cc2ccccc21.O=[N+]([O-])c1cc([N+](=O)[O-])c(O)c([N+](=O)[O-])c1` (configuration not stated), the binding response (% of control) was inactive: 99.8%.

With `Cc1cc(-c2cccc3ccccc23)c(C)cn1.O=[N+]([O-])c1cc([N+](=O)[O-])c(O)c([N+](=O)[O-])c1`, the binding response (% of control) was inactive: 116%.

In the case of `O=[N+]([O-])c1cc([N+](=O)[O-])c(NCC2CCS(=O)(=O)C2)c([N+](=O)[O-])c1` (configuration not stated), the binding response (% of control) is inactive: 97.5%.

As for `O=[N+]([O-])c1ccc(OP2(=O)COCCO2)cc1` (configuration not stated), the binding response (% of control) is inactive: 94.7%.

Turning to `COc1ccc(NP(C)(=O)Oc2ccccc2OC)cc1` (configuration not stated), the binding response (% of control) is inactive: 104%.

On to `CN(C)CCOC(=O)C(O)(c1ccccc1)C1CCCCC1` (configuration not stated), for which the binding response (% of control) is inactive: 103%.

Turning to `COc1ccc(OP(C)(=O)Nc2cccc(Br)c2)cc1` (configuration not stated), the binding response (% of control) is inactive: 97.7%.

For the molecule `Cc1ccccc1NP(C)(=O)Nc1ccccc1C`, the binding response (% of control) was inactive: 102%.

On to `CP(=O)(Nc1ccc2c(c1)OCCO2)Oc1ccccc1` (configuration not stated), for which the binding response (% of control) was inactive: 88.4%.

For the molecule `CCOP(C)(=S)SCC(=O)NC(C)(CC)C(=O)O` (configuration not stated), the binding response (% of control) is inactive: 104%.

Take `CP(=O)(Nc1ccc(SC(F)(F)F)cc1)Oc1ccc(F)cc1` (configuration not stated): the binding response (% of control) is inactive: 96.6%.

As to `COc1ccc2c(c1O)-c1c(O)c(OC)cc3c1[C@H](C2)[N+](C)(C)CC3.O=[N+]([O-])c1cc([N+](=O)[O-])c([O-])c([N+](=O)[O-])c1[O-]`, the binding response (% of control) was inactive: 95.7%.

Turning to `O=C(OCCN1CCN(CCOCc2ccccc2)CC1)C(O)(c1ccccc1)c1ccccc1`, the binding response (% of control) was inactive: 97.9%.

Regarding `O=C(OC1CN2CCC1CC2)c1ccc([N+](=O)[O-])cc1` (configuration not stated), the binding response (% of control) is inactive: 101%.

With `CC(C)c1ccc(OP(C)(=O)Nc2ccc(SC(F)(F)F)cc2)cc1` (configuration not stated), the binding response (% of control) is inactive: 101%.

As for `CP(=O)(Nc1ccccc1F)Oc1ccccc1` (configuration not stated), the binding response (% of control) was inactive: 89.6%.

Consider `CCCCCOc1ccc(NP(C)(=O)Oc2ccc(Cl)cc2Cl)cc1` (configuration not stated), for which the binding response (% of control) is inactive: 94.9%.

Consider `CP(=O)(Nc1ccccc1)Oc1ccc(F)cc1` (configuration not stated), for which the binding response (% of control) was inactive: 99.4%.

With `COc1ccc(OP(C)(=O)Nc2ccc(SC(F)(F)F)cc2)cc1` (configuration not stated), the binding response (% of control) is inactive: 98.2%.

Take `CCOC(=O)c1ccc(NP(C)(=O)Oc2ccc(F)cc2)cc1` (configuration not stated): the binding response (% of control) is inactive: 98.2%.

Consider `CP(=O)(OCCOc1ccccc1)OCCOc1ccccc1`, for which the binding response (% of control) was inactive: 101%.

As for `CP(=O)(Nc1ccc(Cl)cc1Cl)Oc1ccccc1` (configuration not stated), the binding response (% of control) is inactive: 90.2%.

`Cc1nc2ccc3ccccc3c2o1.O=[N+]([O-])c1cc([N+](=O)[O-])c(O)c([N+](=O)[O-])c1`: the binding response (% of control) was inactive: 103%.

On to `COc1ccc(OP(C)(=O)Nc2ccccc2Br)cc1` (configuration not stated), for which the binding response (% of control) is inactive: 99.6%.

With `COc1ccccc1OP(C)(=O)Nc1ccc(C)c(C)c1` (configuration not stated), the binding response (% of control) was inactive: 101%.

Consider `Cc1cc(C)cc(OP(C)(=O)Nc2cccc(C(F)(F)F)c2)c1` (configuration not stated), for which the binding response (% of control) was inactive: 101%.

Take `CCc1ccc(OP(C)(=O)O)cc1`: the binding response (% of control) is inactive: 99.8%.

Turning to `CP(=O)(Nc1ccccn1)Oc1ccccc1` (configuration not stated), the binding response (% of control) is inactive: 100%.

Consider `COc1ccccc1OP(C)(=O)Nc1ccc(C)cc1C` (configuration not stated), for which the binding response (% of control) was inactive: 97.4%.

`O=[N+]([O-])c1cc([N+](=O)[O-])c(Nc2ccccn2)c([N+](=O)[O-])c1`: the binding response (% of control) is inactive: 102%.

Take `Cc1c(NP(C)(=O)Oc2ccc(C(C)C)cc2)c(=O)n(-c2ccccc2)n1C` (configuration not stated): the binding response (% of control) was inactive: 98.1%.

As to `CN(C)CCOC(=O)C(O)(c1ccccc1)C1CCCC1` (configuration not stated), the binding response (% of control) is inactive: 103%.

In the case of `COc1ccc(OP(C)(=O)Nc2ccccn2)cc1` (configuration not stated), the binding response (% of control) was inactive: 113%.

For the molecule `COc1ccccc1OP(C)(=O)Nc1ccc(Br)cc1` (configuration not stated), the binding response (% of control) is inactive: 91.8%.

Regarding `CN(C)C(=O)c1c([N+](=O)[O-])cc([N+](=O)[O-])cc1[N+](=O)[O-]`, the binding response (% of control) was inactive: 93.1%.

`CP(=O)(Nc1ccc(Cl)cc1)Oc1ccc(F)cc1` (configuration not stated): the binding response (% of control) is inactive: 101%.

`CC(C)(C)c1ccc(OP(C)(=O)O)cc1`: the binding response (% of control) was inactive: 98.7%.

Regarding `COc1ccccc1OP(C)(=O)Nc1ccccc1Br` (configuration not stated), the binding response (% of control) was inactive: 102%.

Take `CP(=O)(Oc1ccccc1)N1CCOC1=O` (configuration not stated): the binding response (% of control) was inactive: 102%.

`CCc1ccc(OP(C)(=O)Nc2cccnc2)cc1` (configuration not stated): the binding response (% of control) is inactive: 99.4%.

Consider `O=C(OCCCN1CCCC1)C(O)(c1ccccc1)C1CCCCC1` (configuration not stated), for which the binding response (% of control) was inactive: 113%.

As to `CCN(CC)CC(O)COC(=O)C(O)(c1ccccc1)C1CCCCC1` (configuration not stated), the binding response (% of control) was inactive: 101%.

In the case of `COc1ccc(OP(C)(=O)Nc2ccc(Br)cc2)cc1` (configuration not stated), the binding response (% of control) was inactive: 96.8%.

Regarding `CP(=O)(OC12CC3CC(CC(C3)C1)C2)OC12CC3CC(CC(C3)C1)C2`, the binding response (% of control) was inactive: 102%.

Turning to `CCOC(=O)c1ccc(NP(C)(=O)Oc2ccc(Cl)cc2)cc1` (configuration not stated), the binding response (% of control) is inactive: 101%.
